Measured affinities in a library of Ab-14 heavy chain variants

Antigen: PDVDLGDISGINAS, a 14-residue peptide of the SARS-CoV-2 spike HR2 region.

The variants keep the light chain, the linker and the frameworks of Ab-14 (scFv order VH, a (GGGGS)3 linker, VL).
VH: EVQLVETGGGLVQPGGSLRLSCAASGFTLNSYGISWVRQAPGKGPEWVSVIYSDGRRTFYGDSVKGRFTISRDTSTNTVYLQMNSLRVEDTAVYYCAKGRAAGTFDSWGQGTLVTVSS
VL: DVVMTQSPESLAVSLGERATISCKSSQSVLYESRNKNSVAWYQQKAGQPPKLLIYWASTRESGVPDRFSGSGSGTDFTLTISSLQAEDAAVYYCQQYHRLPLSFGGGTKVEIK

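The parent was found by panning a naive human phage display library on the peptide. The variants were designed computationally from a first round of random CDR variants and then made and measured. Their group label is 14H_En_Gibbs (En: ensemble of fine-tuned language models; Gibbs: Gibbs sampling). AlphaSeq pools MATa yeast showing the antibodies with MATalpha yeast showing the peptide. After mating in shaken culture at 30 °C for 16 h, diploids were selected and their barcode pairs sequenced. Each replicate has its own calibration line, from reference interactions of the BCL2 family. The assay was run in six technical replicates.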

The whole VH of each variant is written out. Values are log10 of the apparent Kd in nM; lower means stronger binding. "nd" means that the variant was in the library but no mating with the target was seen in that replicate; the authors take this as a sign of poor binding, and no number exists. Of ten entries with the parent sequence, four were seen in most replicates (averages 0.34 to 2.37), three in one and three in none, so single entries are noisy. Values of this round are not directly comparable with the first-round values of the same sequences. The authors' rule: three or more of the six replicates give a measured affinity, fewer mean a poor binder. As a blank, each scFv also met three strains without target: over all heavy chain designs, 1% of these pairings were detected, typically at 2.08 and seldom below 0.84. For each scFv, signals with the empty controls are counted beside the result, with their mean in brackets.

VH,"replicates, log10 nM",control signals
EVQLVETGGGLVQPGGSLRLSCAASGQDLNEYGISWVRQAPGKGPEWVSVIYADGLRTAYTENVKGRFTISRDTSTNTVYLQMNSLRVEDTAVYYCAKGNQSDFDSGWGQGTLVTVSS,nd nd nd nd nd nd,0/18
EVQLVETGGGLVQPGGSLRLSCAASGADINEYGISWVRQAPGKGPEWVSVIYADGNRIAYQDQVKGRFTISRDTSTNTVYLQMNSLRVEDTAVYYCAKGNLAGSFDIWGQGTLVTVSS,nd nd nd nd nd 1.68,0/18
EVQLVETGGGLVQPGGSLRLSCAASGFSINEYGISWVRQAPGKGPEWVSVIYADGNRSAYIDAVKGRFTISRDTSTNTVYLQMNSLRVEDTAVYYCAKGNVGSSFLEWGQGTLVTVSS,nd nd nd nd nd nd,2/18 (2.06)
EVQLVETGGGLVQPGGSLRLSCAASGFDLDQYGISWVRQAPGKGPEWVSVIYADGMRSVYADDVKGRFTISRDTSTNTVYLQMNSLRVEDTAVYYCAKCHWGGIFLVWGQGTLVTVSS,nd nd nd nd nd nd,0/18
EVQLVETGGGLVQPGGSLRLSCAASGFDLNEYGVSWVRQAPGKGPEWVSVIYADGFRTAYTDSVKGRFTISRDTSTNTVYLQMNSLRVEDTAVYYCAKGNIFDLIMAWGQGTLVTVSS,nd nd nd nd nd nd,0/18
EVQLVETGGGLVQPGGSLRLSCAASGFVLDEYGISWVRQAPGKGPEWVSVIYADGMRTVYAEDFKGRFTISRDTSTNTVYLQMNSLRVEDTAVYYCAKGQNGGNFHHWGQGTLVTVSS,nd nd nd nd nd nd,0/18
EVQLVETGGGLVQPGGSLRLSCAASGDALDEYGISWVRQAPGKGPEWVSVIYADGMRSSYSNDVKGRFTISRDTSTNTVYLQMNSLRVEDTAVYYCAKGNNFGNKMVWGQGTLVTVSS,nd nd nd nd nd nd,0/18
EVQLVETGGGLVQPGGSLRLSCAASGFGLDEFGISWVRQAPGKGPEWVSVIYADGLRSSYADDVKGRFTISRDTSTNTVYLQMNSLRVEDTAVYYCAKGEMTGGFIVWGQGTLVTVSS,nd nd nd nd nd nd,0/18
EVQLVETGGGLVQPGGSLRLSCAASGEDLDEYGISWVRQAPGKGPEWVSVIYADGRRVVYQDQFKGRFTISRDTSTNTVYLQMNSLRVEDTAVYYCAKGELAGTFDQWGQGTLVTVSS,0.43 nd 0.19 nd 0.28 nd,0/18
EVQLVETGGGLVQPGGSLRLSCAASGFQLDEFGISWVRQAPGKGPEWVSVIYADGKRSSYVDDVKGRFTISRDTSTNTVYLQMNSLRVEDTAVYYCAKGEVTGGFKVWGQGTLVTVSS,nd nd nd nd nd nd,0/18
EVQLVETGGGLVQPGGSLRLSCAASGFDLGEYGISWVRQAPGKGPEWVSVIYADGRRTAYQDSVKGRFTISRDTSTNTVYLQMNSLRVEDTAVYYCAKGLNEGMLVIWGQGTLVTVSS,nd nd nd nd nd nd,0/18
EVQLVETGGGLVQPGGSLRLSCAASGFDLGEYGISWVRQAPGKGPEWVSVIYADGRRTAYSQSVKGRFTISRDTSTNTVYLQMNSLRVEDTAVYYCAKGLNEGMLVIWGQGTLVTVSS,nd nd nd nd nd nd,0/18
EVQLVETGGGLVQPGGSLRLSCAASGFDLNEYGISWVRQAPGKGPEWVSVIYADGMRVSATNTVKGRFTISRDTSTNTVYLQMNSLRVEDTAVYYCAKGGNSMISATWGQGTLVTVSS,nd nd nd nd nd nd,0/18
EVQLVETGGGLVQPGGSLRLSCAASGFDLNEYGISWVRQAPGKGPEWVSVIYADGQRVSYAQNVKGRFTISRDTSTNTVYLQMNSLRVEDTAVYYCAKGLVGKLKVVWGQGTLVTVSS,nd nd nd nd nd nd,0/18
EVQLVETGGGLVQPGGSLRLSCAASGFDLNEYGISWVRQAPGKGPEWVSVIYADGQRRAYSQSVKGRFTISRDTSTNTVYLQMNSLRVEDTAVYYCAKGHGEDLYLDWGQGTLVTVSS,1.96 nd 1.92 nd 1.77 2.08,1/18 (2.23)
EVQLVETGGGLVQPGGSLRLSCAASGKDLEEYGISWVRQAPGKGPEWVSVIYADGFRTAYKNQVKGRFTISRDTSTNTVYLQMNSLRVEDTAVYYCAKGSGMIDTMVWGQGTLVTVSS,nd nd nd nd nd nd,0/18
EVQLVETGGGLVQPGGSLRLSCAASGNSLDEYGISWVRQAPGKGPEWVSVIYADGKRTAYSDAVKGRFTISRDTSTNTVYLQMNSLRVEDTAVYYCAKDVGSNTLVDWGQGTLVTVSS,nd nd nd nd nd nd,0/18
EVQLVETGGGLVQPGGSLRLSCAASGEDLLEYGISWVRQAPGKGPEWVSVIYADGIRVAYTNQVKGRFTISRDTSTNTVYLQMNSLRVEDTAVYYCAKGNVAGFFTLWGQGTLVTVSS,nd nd nd nd nd nd,0/18
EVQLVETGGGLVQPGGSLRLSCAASGFSLDEYGISWVRQAPGKGPEWVSVIYADGRRTMYCDNFKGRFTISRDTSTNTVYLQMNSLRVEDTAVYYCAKGEHGCTFKMWGQGTLVTVSS,2.00 0.29 0.15 1.15 0.94 1.68,0/18
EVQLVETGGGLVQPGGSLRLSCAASGFILDEYGISWVRQAPGKGPEWVSVIYADGERTMYSNRVKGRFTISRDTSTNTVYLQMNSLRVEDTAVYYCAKGNEAGTFDFWGQGTLVTVSS,0.93 1.84 nd 1.04 0.24 0.45,0/18

Excerpt, the first 2 entries:

VH,"replicates, log10 nM",control signals
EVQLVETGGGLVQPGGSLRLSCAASGQDLNEYGISWVRQAPGKGPEWVSVIYADGLRTAYTENVKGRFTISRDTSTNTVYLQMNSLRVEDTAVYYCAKGNQSDFDSGWGQGTLVTVSS,nd nd nd nd nd nd,0/18
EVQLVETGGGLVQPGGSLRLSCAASGADINEYGISWVRQAPGKGPEWVSVIYADGNRIAYQDQVKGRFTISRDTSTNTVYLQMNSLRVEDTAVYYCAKGNLAGSFDIWGQGTLVTVSS,nd nd nd nd nd 1.68,0/18

Data: MIT Lincoln Laboratory AlphaSeq set, Li et al. 2023, doi:10.1038/s41467-023-39022-2, as distributed in FLAb.